IC50 data for 3 compounds are collected here from US10457637B2, “Benzenesulfonamide derivatives as inverse agonists of retinoid-related orphan receptor gamma (RORγ(T))” (GALDERMA RESEARCH & DEVELOPMENT, priority 2014, dated 2019).

Bounds are passed on as bounds.

This assay has as its system IL-17A secretion by CD4+ cells. Put plainly: IL-17A secretion by CD4+ cells (HTRF). It is filed as cell-based. As to conditions: 96 h; human CD4+ cells activated with anti-CD3 and anti-CD28, 4 days of incubation; read-out: IC50 hCD4/IL17. The procedure:
This model allows measurement of the effect of inhibitors on IL-17A secretion by CD4+ cells. […] The amount of IL-17a secreted is measured by the TR-FRET (kit HTRF® Human Interleukin 17A (Cisbio, #64H17PEC)) technology.
The cells are rapidly thawed, resuspended in their culture medium (RPMI inactivated 10% FCS) supplemented with soluble anti-CD28 antibodies and seeded (100 000 cells/well) in 96-well plates precoated with anti-CD3 antibodies. The cells are then treated with the ranges of inhibitors to be tested (from 1000 nM to 0.05 nM, 0.1% DMSO). […] The IC50 values are calculated from a 4-parameter logistic model using the XLFit software (IDBS).
Background: In TR-FRET formats the signal depends on donor and acceptor labels being close together.

For `CCc1ccc(N(CC(C)C)S(=O)(=O)c2ccc(OCC3CCOCC3)c(S(C)(=O)=O)c2)cc1` [compound 24, N-(4-ethylphenyl)-N-isobutyl-3-methanesulfonyl-4-(tetrahydropyran-4-ylmethoxy)benzenesulfonamide], the IC50 was less than 100 nM. In the case of `CCc1ccc(N(CC(C)C)S(=O)(=O)c2ccc(SCC3CCOCC3)c(CO)c2)cc1` [compound 21, N-(4-ethylphenyl)-3-hydroxymethyl-N-isobutyl-4-(tetrahydropyran-4-ylmethylsulfanyl)benzenesulfonamide] it was less than 100 nM; in that of `CCc1ccc(N(CC(C)C)S(=O)(=O)c2ccc(N3CCN(C(C)=O)CC3)c(S(C)(=N)=O)c2)cc1` (stereo not drawn) [compound 63, 4-(4-acetylpiperazin-1-yl)-N-(4-ethylphenyl)-N-isobutyl-3-(S-methylsulfonimidoyl)benzenesulfonamide], more than 1000 nM.
